Read-outs that look alike come from different tables or passages of the source.
Tested on: CDC1551(ΔdosR) mutant
Type: cell-based

`C[C@@H]1CC[C@H]2[C@@H](C)C(=O)O[C@@H]3O[C@]4(C)CC[C@@H]1[C@]32OO4` [HC101A, artemisinin, reference compound] was tested. Which “DosR DMSO/DosR HC101A Fold change” value (gene MT0169 Rv0160c PE, HC101A vs DMSO) did it give?
Its value is 0.3769.

And the “DosR DMSO/DosR HC101A Fold change” value (gene MT0258 Rv0244c fadE5, HC101A vs DMSO)?
The value was 0.4765.

What about the “DosR DMSO/DosR HC101A Fold change” value (gene MT0273 Rv0260c, HC101A vs DMSO) of the same compound?
Its value is 0.2767.

And the “DosR DMSO/DosR HC101A Fold change” value (gene MT0292 Rv0280 PPE, HC101A vs DMSO)?
Its value is 0.4213.

And the “DosR DMSO/DosR HC101A Fold change” value (gene MT0329 Rv0315, HC101A vs DMSO)?
Its value is 0.4217.

What about the “DosR DMSO/DosR HC101A Fold change” value (gene MT0456 Rv0440 groEL2, HC101A vs DMSO) of the same compound?
The value was 0.4219.

And the “DosR DMSO/DosR HC101A Fold change” value (gene MT0468 Rv0452, HC101A vs DMSO)?
Its value is 2.609.

What about the “DosR DMSO/DosR HC101A Fold change” value (gene MT0483 Rv0467 aceA, HC101A vs DMSO) of the same compound?
The value was 0.3537.

What about the “DosR DMSO/DosR HC101A Fold change” value (gene MT0484, HC101A vs DMSO) of the same compound?
Its value is 0.4124.

What about the “DosR DMSO/DosR HC101A Fold change” value (gene MT0493 Rv0475, HC101A vs DMSO) of the same compound?
Its value is 0.4739.

And the “DosR DMSO/DosR HC101A Fold change” value (gene MT0530 Rv0509 hemA, HC101A vs DMSO)?
The value was 2.042.

What about the “DosR DMSO/DosR HC101A Fold change” value (gene MT0531 Rv0510 hemC, HC101A vs DMSO) of the same compound?
The value was 2.374.

And the “DosR DMSO/DosR HC101A Fold change” value (gene MT0532 Rv0511 cysG, HC101A vs DMSO)?
Its value is 2.326.

And the “DosR DMSO/DosR HC101A Fold change” value (gene MT0533 Rv0512 hemB, HC101A vs DMSO)?
The value was 2.422.

What about the “DosR DMSO/DosR HC101A Fold change” value (gene MT0583 Rv0557, HC101A vs DMSO) of the same compound?
The value was 2.162.

And the “DosR DMSO/DosR HC101A Fold change” value (gene MT0586 Rv0560c, HC101A vs DMSO)?
The value was 3.863.

What about the “DosR DMSO/DosR HC101A Fold change” value (gene MT0658 Rv0630c recB, HC101A vs DMSO) of the same compound?
Its value is 2.029.

And the “DosR DMSO/DosR HC101A Fold change” value (gene MT0705 Rv0676c mmpL5, HC101A vs DMSO)?
Its value is 3.683.

And the “DosR DMSO/DosR HC101A Fold change” value (gene MT0706 Rv0677c mmpS5, HC101A vs DMSO)?
Its value is 3.164.

And the “DosR DMSO/DosR HC101A Fold change” value (gene MT0706.1 Rv0678, HC101A vs DMSO)?
Its value is 2.974.

And the “DosR DMSO/DosR HC101A Fold change” value (gene MT0772.5 Rv0747 PE_PGRS, HC101A vs DMSO)?
Its value is 2.06.

What about the “DosR DMSO/DosR HC101A Fold change” value (gene MT0808 Rv0784, HC101A vs DMSO) of the same compound?
The value was 4.335.

And the “DosR DMSO/DosR HC101A Fold change” value (gene MT0901 Rv0878c PPE, HC101A vs DMSO)?
The value was 0.484.

And the “DosR DMSO/DosR HC101A Fold change” value (gene MT0908 Rv0885, HC101A vs DMSO)?
The value was 0.09476.

What about the “DosR DMSO/DosR HC101A Fold change” value (gene MT0909 Rv0886 fprB, HC101A vs DMSO) of the same compound?
Its value is 0.1128.

And the “DosR DMSO/DosR HC101A Fold change” value (gene MT0911 Rv0888, HC101A vs DMSO)?
The value was 0.3301.

And the “DosR DMSO/DosR HC101A Fold change” value (gene MT0915.1, HC101A vs DMSO)?
Its value is 0.4347.

What about the “DosR DMSO/DosR HC101A Fold change” value (gene MT0956 Rv0929 pstC2, HC101A vs DMSO) of the same compound?
The value was 2.052.

What about the “DosR DMSO/DosR HC101A Fold change” value (gene MT1019 Rv0990c, HC101A vs DMSO) of the same compound?
Its value is 0.4244.

And the “DosR DMSO/DosR HC101A Fold change” value (gene MT1020, HC101A vs DMSO)?
Its value is 0.4173.

And the “DosR DMSO/DosR HC101A Fold change” value (gene MT1073 Rv1043c, HC101A vs DMSO)?
Its value is 2.098.

And the “DosR DMSO/DosR HC101A Fold change” value (gene MT1123 Rv1091 PE_PGRS, HC101A vs DMSO)?
The value was 2.021.

And the “DosR DMSO/DosR HC101A Fold change” value (gene MT1224 Rv1187 rocA, HC101A vs DMSO)?
Its value is 0.4905.

And the “DosR DMSO/DosR HC101A Fold change” value (gene MT1233 Rv1195 PE, HC101A vs DMSO)?
Its value is 0.3447.

And the “DosR DMSO/DosR HC101A Fold change” value (gene MT1296 Rv1257c, HC101A vs DMSO)?
Its value is 2.295.

What about the “DosR DMSO/DosR HC101A Fold change” value (gene MT1297 Rv1258c, HC101A vs DMSO) of the same compound?
Its value is 3.349.

And the “DosR DMSO/DosR HC101A Fold change” value (gene MT1303 Rv1265, HC101A vs DMSO)?
Its value is 2.191.

What about the “DosR DMSO/DosR HC101A Fold change” value (gene MT1385, HC101A vs DMSO) of the same compound?
The value was 0.3008.

And the “DosR DMSO/DosR HC101A Fold change” value (gene MT1424 Rv1380 pyrB, HC101A vs DMSO)?
Its value is 2.37.

And the “DosR DMSO/DosR HC101A Fold change” value (gene MT1425 Rv1381 pyrC, HC101A vs DMSO)?
The value was 2.26.

What about the “DosR DMSO/DosR HC101A Fold change” value (gene MT1426, HC101A vs DMSO) of the same compound?
The value was 2.443.

And the “DosR DMSO/DosR HC101A Fold change” value (gene MT1427 Rv1383 car A, HC101A vs DMSO)?
The value was 2.007.

And the “DosR DMSO/DosR HC101A Fold change” value (gene MT1428 Rv1384 carB, HC101A vs DMSO)?
The value was 2.166.

And the “DosR DMSO/DosR HC101A Fold change” value (gene MT1429 Rv1385 pyrF, HC101A vs DMSO)?
Its value is 2.871.

And the “DosR DMSO/DosR HC101A Fold change” value (gene MT1430 Rv1386 PE, HC101A vs DMSO)?
Its value is 0.4983.

What about the “DosR DMSO/DosR HC101A Fold change” value (gene MT1431 Rv1387 PPE, HC101A vs DMSO) of the same compound?
Its value is 0.4348.

And the “DosR DMSO/DosR HC101A Fold change” value (gene MT1484 Rv1439c, HC101A vs DMSO)?
Its value is 0.3515.

And the “DosR DMSO/DosR HC101A Fold change” value (gene MT1585.1, HC101A vs DMSO)?
The value was 0.2117.

What about the “DosR DMSO/DosR HC101A Fold change” value (gene MT1586 Rv535 Rv1535, HC101A vs DMSO) of the same compound?
The value was 0.255.

And the “DosR DMSO/DosR HC101A Fold change” value (gene MT1620 Rv1569 bioF, HC101A vs DMSO)?
The value was 2.269.

What about the “DosR DMSO/DosR HC101A Fold change” value (gene MT1627, HC101A vs DMSO) of the same compound?
Its value is 0.4203.

What about the “DosR DMSO/DosR HC101A Fold change” value (gene MT1628 Rv1592c, HC101A vs DMSO) of the same compound?
The value was 0.4323.

And the “DosR DMSO/DosR HC101A Fold change” value (gene MT1736, HC101A vs DMSO)?
Its value is 0.4867.

What about the “DosR DMSO/DosR HC101A Fold change” value (gene MT1775, HC101A vs DMSO) of the same compound?
The value was 0.4957.

And the “DosR DMSO/DosR HC101A Fold change” value (gene MT1836 Rv1787 PPE, HC101A vs DMSO)?
The value was 3.598.

— patent US11717508B2, “Compounds, compositions, and methods for inhibiting bacterial growth” (priority 2016, dated 2023)
